1 compound from ChEMBL document CHEMBL4507265 (2021) can be followed below.

Sequences of proteins named here, by UniProt entry; tags and fusion partners are left off. A change or cut given only in a name is not applied to a line headed by its entry.
UniProt O43683: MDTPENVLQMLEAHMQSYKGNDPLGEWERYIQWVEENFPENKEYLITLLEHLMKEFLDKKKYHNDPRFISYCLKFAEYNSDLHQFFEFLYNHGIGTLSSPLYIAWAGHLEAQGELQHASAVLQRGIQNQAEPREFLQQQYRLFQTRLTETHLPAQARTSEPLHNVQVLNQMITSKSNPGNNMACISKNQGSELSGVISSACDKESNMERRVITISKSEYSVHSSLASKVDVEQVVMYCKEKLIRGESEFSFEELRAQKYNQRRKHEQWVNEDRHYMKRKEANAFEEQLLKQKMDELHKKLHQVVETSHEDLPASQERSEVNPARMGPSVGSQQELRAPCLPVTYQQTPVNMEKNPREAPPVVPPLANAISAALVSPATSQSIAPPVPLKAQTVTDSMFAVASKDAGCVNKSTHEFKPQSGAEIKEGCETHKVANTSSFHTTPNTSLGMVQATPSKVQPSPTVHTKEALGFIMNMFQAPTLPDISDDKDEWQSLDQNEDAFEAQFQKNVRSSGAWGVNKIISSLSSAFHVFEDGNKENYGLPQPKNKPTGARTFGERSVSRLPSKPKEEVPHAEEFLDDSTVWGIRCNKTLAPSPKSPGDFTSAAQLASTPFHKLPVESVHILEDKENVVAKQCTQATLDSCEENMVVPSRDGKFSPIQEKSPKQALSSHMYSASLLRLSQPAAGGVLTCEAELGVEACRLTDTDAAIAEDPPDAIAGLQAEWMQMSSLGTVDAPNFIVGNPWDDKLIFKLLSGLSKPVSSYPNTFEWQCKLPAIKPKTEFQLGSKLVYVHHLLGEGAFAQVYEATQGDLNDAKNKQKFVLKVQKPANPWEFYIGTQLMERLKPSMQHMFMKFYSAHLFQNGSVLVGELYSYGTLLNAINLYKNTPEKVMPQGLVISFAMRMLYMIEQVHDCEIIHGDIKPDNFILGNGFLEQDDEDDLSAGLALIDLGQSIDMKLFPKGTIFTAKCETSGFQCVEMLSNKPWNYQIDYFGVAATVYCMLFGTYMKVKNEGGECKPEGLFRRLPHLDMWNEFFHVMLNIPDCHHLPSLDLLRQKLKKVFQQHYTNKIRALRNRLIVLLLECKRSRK

Assay [1] addresses Mitotic checkpoint serine/threonine-protein kinase BUB1 (Homo sapiens) (UniProt O43683). Conditions: Compound concentration 1000.0 nM.
Assay [2] relates to Epidermal growth factor receptor (Homo sapiens), P00533 [UNDEFINED MUTATION]. Conditions: Compound concentration 1000.0 nM.

Consider `NS(=O)(=O)c1cc(NC(=O)Cc2ccccc2)ccc1Oc1cccc(Cl)c1` [BAY-1797], for which the residual activity in assay [1] is 1.6%; in assay [2] it was 47%.

For orientation: residual activity means the signal under treatment as a percentage of the control signal.
